Experimental data reported in patent US20080153791A1, “11Beta -Hydroxysteroid Dehydrogenases” (onpharm GmbH, priority 2005, published 2008).
Like-named read-outs stand apart in the source and are kept apart here.

By UniProt entry, the sequences of proteins in these tests, tags left out. Where a name states a change or a piece, a line headed by the entry shows the natural chain unless it says otherwise.
UniProt P28845: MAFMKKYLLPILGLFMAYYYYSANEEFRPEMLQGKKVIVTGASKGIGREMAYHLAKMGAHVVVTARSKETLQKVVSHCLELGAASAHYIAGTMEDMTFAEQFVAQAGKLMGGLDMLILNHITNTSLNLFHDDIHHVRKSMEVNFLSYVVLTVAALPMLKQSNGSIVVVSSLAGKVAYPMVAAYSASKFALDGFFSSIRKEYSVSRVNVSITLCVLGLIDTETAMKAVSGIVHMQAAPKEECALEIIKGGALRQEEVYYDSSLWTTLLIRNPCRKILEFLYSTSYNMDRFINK

Biological target: T1, human 11β-HSD1 (Homo sapiens, UniProt P28845)
T1 construct: expressed in transfected cells
Experiment: 11β-HSD1 reductase activity (cortisone to cortisol) in lysates of stably transfected HEK-293 cells
Type: biochemical
Procedure: Cells were grown in 10 cm dishes to 80% confluence and incubated for 16 h in steroid-free medium (charcoal-treated fetal calf serum (FCS) from HyClone, Logan, Utah). Cells were rinsed once with phosphate-buffered saline (PBS), detached and centrifuged for 3 min at 150×g. The supernatant was removed and the cell pellet quick-frozen in a dry-ice ethanol bath. At the day of experiment, cell pellets were resuspended in buffer TS2 (100 mM NaCl, 1 mM EGTA, 1 mM EDTA, 1 mM MgCl2, 250 mM sucrose, 20 mM Tris-HCl, pH 7.4), sonicated and activities determined immediately. The rate of conversion of cortisol to cortisone or the reverse reaction was determined in 96-well optical PCR reaction plates (Applied Biosystems, Foster City, Calif.) in a final volume of 22 μl, and the tubes were capped during the reaction to avoid evaporation.
Reactions were initiated simultaneously by adding 10 μl of cell lysate and 12 μl of TS2 buffer containing the appropriate concentration of the inhibitory compound to be tested, NADPH, 30 nCi of [1,2,6,7-^3H]-cortisone and unlabeled cortisone, whereby final concentrations were 400 μM NADPH and 100 nM cortisone. Activities were determined immediately after cell disruption by measuring the conversion of radiolabeled cortisone to cortisol for 10 min.
Enzyme kinetics were analyzed by non-linear regression using Data Analysis Toolbox (MDL Information Systems Inc.) assuming first-order rate kinetics. Data represent mean ±SD of four to five independent experiments.
Assay with 20 μM of the corresponding compound in the reaction mixture, added simultaneously with the substrate:
Determination of IC50 values, using 7 different inhibitor concentrations at factor 2 intervals: […]

Which results are given for “(2S,4aS,6aS,6bR,8aR,10S,12aS,12bR,14bR)-10-Acetoxy-2,4a,6a,6b,9,9,12a-heptamethyl-13-oxo-1,2,3,4,4a,5,6,6a,6b,7,8,8a,9,10,11,12,12a,12b,13,14b-icosahydro-picene-2-carboxylic acid [BNW14]”?
11β-HSD1 % of control: 20.2%; IC50 (read-out: IC 50 11β-HSD1, Mean): 2810 nM; IC50 (read-out: IC 50 11β-HSD1, determination 1): 2750 nM; IC50 (read-out: IC 50 11β-HSD1, determination 2): 3090 nM; IC50 (read-out: IC 50 11β-HSD1, determination 3): 2580 nM
